{"source": "patent US7456192B2", "about": "“3β-amino azabicyclooctane heteroaromatic amid derivatives preparation method and therapeutic uses thereof” (Pierre Fabre Medicament, priority 2001, dated 2008)", "test": "Cataleptic activity in rats, compound alone without methylphenidate", "settings": "rat, in vivo, ip", "data": [{"molecule": "Cc1nc2n(c(=O)c1CCN1CCC(c3noc4cc(F)ccc34)CC1)CCCC2", "note": "[Risperidone, reference compound]", "values": [{"measurement": "ED50", "value": 1.2, "unit": "mg/kg"}]}]}
